# Antibody variant affinities, Ab-14 heavy chain, assay 1

Binding partner: SARS-CoV-2 spike HR2 peptide, sequence PDVDLGDISGINAS.

Each scFv is VH, a 15-residue (Gly4Ser)3 linker, VL, as in the parent Ab-14, and differs from it in the CDRs of the heavy chain only.
VH: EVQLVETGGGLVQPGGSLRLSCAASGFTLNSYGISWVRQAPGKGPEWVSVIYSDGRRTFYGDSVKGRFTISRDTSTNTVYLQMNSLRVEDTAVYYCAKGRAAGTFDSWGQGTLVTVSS
VL: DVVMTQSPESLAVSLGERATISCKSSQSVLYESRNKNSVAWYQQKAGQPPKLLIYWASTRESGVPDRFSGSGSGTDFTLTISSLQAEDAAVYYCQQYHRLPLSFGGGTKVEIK

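Variants in AAYL49 differ from the parent at up to three CDR positions; double and triple changes were sampled at random. AlphaSeq pools MATa yeast showing the antibodies with MATalpha yeast showing the peptide. Binding brings cells together so that they mate, and sequencing counts the barcode pairs among the diploids. Each replicate has its own calibration line, from reference interactions of the BCL2 family. The assay was run in three technical replicates.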

Each variant is given by its three heavy chain CDRs, as the data file delimits them; those of the parent are GFTLNSYGIS, VIYSDGRRTFYGDSVK, GRAAGTFDS. Scale: log10 of Kd in nM, estimated from mating counts; low values are strong binders. An entry "nd" has no value in the source: the pair was not observed among the diploids in that replicate. This suggests poor binding but is not conclusive. Background: pairings of library AAYL49 with three empty control strains gave a value in 15% of cases (median 4.06, 5th percentile 2.83). Values in that range, when seen in few replicates, are hard to tell from nonspecific mating. Also given: how often the same scFv was detected with the empty control strains, with their mean in brackets.

CDR-H1 | CDR-H2 | CDR-H3 | log10 Kd, replicates | control signals
GFTLNSYGIS | VKYSDGERTFYGDSVK | GRAAGTFHS | nd 4.01 nd | 3/9 (4.31)
GFTLNSYGIS | VIYRDGRRTEYGDEVK | GRAAGTFDS | 4.30 nd nd | 1/9 (3.66)
GWTLNSYGIS | VIYSDGRRTFNGDSVK | SRAAGTFDS | nd 3.82 5.29 | 1/9 (4.96)
GFTLNDYGIS | VIYSDGRRTFYGDSRK | GRAAGCFDS | nd nd nd | 0/9
GKTLNSYGIS | VIYSDGRRTFYYDSVK | GRAAATFDS | 4.32 3.79 nd | 2/9 (4.13)
GFTLNSYGIS | VIYSPGDRFFYGDSVK | GRAAGTFDS | nd nd 5.05 | 0/9
GFTLNSYSIS | VIYSDGRRTFYGDLVK | GRAAGTFDS | nd nd nd | 0/9
GFTLNSYGIS | VIYSDGRRTFYTDTVK | GRAAGTPDS | 5.96 nd 3.73 | 2/9 (3.89)
GGTLYNYGIS | VIYSDGRRTFYGDSVK | GRAAGTFDS | 2.11 nd 2.32 | 4/9 (3.26)
GFTYNSYGIS | VIYLDGRRQFYGDSVK | GRAAGTFDS | nd 3.46 nd | 1/9 (3.33)
GFTLNSKGIS | VIYSDGPRTSYGDSVK | GRAAGTFDS | 2.78 nd 4.68 | 1/9 (4.46)
GFTLNSYGES | VQYSDGRRTFYGDSVK | GRQAGTFDS | nd nd nd | 1/9 (3.70)
GFTSNSRGIS | VIYSDGIRTFYGDSVK | GRAAGTFDS | nd nd nd | 0/9
GFTLNSYGIS | VCYWDGRRTFYGDSVK | GRAAGTFDS | nd nd nd | 2/9 (4.12)
GFTLNSYGIS | VIYSDGRRTFYFWSLK | GRAAGTFDS | 4.84 3.66 nd | 4/9 (4.61)
GFTLNIYHIS | VIYSWGRRTFYGDSVK | GRAAGTFDS | nd nd nd | 0/9
CFTLNSYGIS | VTYSDGRRNFYGDSVK | GRAAGTFDS | 5.24 4.79 nd | 4/9 (5.47)
GFTLNSYGIS | VIASDGRRKFYGDSVK | GRLAGTFDS | nd 3.10 nd | 3/9 (4.18)
GFTLNSYGIS | VIYSDGVRTFYGDSMK | GRAAGTFDC | nd 3.70 nd | 0/9
GFTLNSYGIS | VWYSDGRRTFYGDSHT | GRAAGTFDS | nd nd nd | 0/9
GFTLNSYGIS | VIYQKQRRTFYGDSVK | GRAAGTFDS | nd nd nd | 0/9
GFTLNSYGIS | VDYSDLNRTFYGDSVK | GRAAGTFDS | nd 3.28 nd | 0/9
GFILNSLGNS | VIYSDGRRTFYGDSVK | GRAAGTFDS | nd nd 5.09 | 1/9 (5.16)
GFSLPSYGIS | VIYSDGRRTFYGDSVK | GRRAGTFDS | nd nd nd | 0/9
GFTRNSYGIS | VIYSVGRRTFYGDSYK | GRAAGTFDS | nd nd nd | 1/9 (3.35)
GFTKNSYGIS | VIYSDGRRTFYGDSVG | GRAAGTPDS | nd nd nd | 0/9
GFTLNSYGSS | VIYSDGRCTFYGDSVK | GDAAGTFDS | 3.33 3.76 4.56 | 4/9 (4.15)
GFTLNSYGIS | VIYSDGRWTFYGDSVK | GRYVGTFDS | nd nd 3.87 | 5/9 (4.86)
GFTLNSYGIS | VIVSDGRATFYGESVK | GRAAGTFDS | nd nd nd | 0/9
GFTLNSYGIS | VIYSDGRRTFYNDSVK | GRAAKTFQS | nd nd nd | 3/9 (4.52)
GFTLNSYGMS | VIYDDGRRTFAGDSVK | GRAAGTFDS | nd nd nd | 0/9
GFTLNGYGIS | VIYVDGRRTFYNDSVK | GRAAGTFDS | nd nd nd | 0/9
GFTLNSYGIS | VSYSDGRRTFYGDSTK | GRAAGRFDS | nd 3.90 5.36 | 4/9 (4.85)

For reference, 4 entries of the list once more:

CDR-H1	CDR-H2	CDR-H3	log10 Kd, replicates	control signals
GFTLNIYHIS	VIYSWGRRTFYGDSVK	GRAAGTFDS	nd nd nd	0/9
GFILNSLGNS	VIYSDGRRTFYGDSVK	GRAAGTFDS	nd nd 5.09	1/9 (5.16)
GFTLNSYSIS	VIYSDGRRTFYGDLVK	GRAAGTFDS	nd nd nd	0/9
GFTLNDYGIS	VIYSDGRRTFYGDSRK	GRAAGCFDS	nd nd nd	0/9

For reference, the parent read 0.65 as the reference entry and 4.11 (one replicate of three) as a member of this library.

The measurements come from Engelhart et al. 2022 (doi:10.1038/s41597-022-01779-4) through the FLAb antibody collection.